{"source": "paper PMC4993153", "about": "(Bioorganic & medicinal chemistry, 2016)", "molecular_target": "Lactate dehydrogenase (LDH) (Oryctolagus cuniculus, UniProt P13491)", "experiment": "Inhibition of dehydrogenase activity of lactate dehydrogenase", "format": "biochemical", "conditions": "ratio of LDH IC50 to CtBP2 IC50"}
{"smiles": "O=C(O)/C(Cc1ccc(Cl)cc1)=N\\O", "note": "[Compound 14g, 3-(4-chlorophenyl)-2-(hydroxyimino)propanoic acid]", "values": [{"measurement": "Selectivity for CtBP2 over LDH", "result": "> 170", "unit": "fold"}]}
